For 1 molecule, outcome results are on record in PubChem BioAssay AID2776 (Johns Hopkins Ion Channel Center, 2010).

Sequences of proteins named here, by UniProt entry; tags and fusion partners are left off.
UniProt Q9QUQ5, whole entry: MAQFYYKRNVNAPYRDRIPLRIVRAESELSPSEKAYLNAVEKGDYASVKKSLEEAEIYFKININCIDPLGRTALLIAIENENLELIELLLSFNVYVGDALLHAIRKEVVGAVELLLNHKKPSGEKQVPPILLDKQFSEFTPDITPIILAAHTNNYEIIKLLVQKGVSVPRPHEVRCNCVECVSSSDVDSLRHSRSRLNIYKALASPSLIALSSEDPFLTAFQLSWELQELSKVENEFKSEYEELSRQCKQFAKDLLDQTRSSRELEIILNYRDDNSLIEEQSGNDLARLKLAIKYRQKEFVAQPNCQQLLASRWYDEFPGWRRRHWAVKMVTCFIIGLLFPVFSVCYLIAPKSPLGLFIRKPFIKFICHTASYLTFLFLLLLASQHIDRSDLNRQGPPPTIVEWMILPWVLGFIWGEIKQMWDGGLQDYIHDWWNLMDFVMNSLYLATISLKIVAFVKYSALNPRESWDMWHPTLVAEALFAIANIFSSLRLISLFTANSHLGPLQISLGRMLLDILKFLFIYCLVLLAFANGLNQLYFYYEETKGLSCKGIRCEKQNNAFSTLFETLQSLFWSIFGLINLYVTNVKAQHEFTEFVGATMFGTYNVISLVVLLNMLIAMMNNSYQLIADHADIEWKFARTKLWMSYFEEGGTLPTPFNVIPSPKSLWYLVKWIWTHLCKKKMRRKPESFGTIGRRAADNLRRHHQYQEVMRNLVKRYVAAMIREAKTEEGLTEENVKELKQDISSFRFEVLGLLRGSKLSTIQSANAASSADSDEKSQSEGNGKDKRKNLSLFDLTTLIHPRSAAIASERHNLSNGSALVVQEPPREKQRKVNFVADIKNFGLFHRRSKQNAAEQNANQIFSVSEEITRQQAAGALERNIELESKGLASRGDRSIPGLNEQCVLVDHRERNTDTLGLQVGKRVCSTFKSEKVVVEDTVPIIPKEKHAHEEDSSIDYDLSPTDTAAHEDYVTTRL

This test addresses Short transient receptor potential channel 4 (Mus musculus) (UniProt Q9QUQ5). Put plainly: DAMGO-gated TRPC4 membrane potential modulation – cell-based, second specificity screen, HEK293 TRPC4/mu-opioid, selectivity assay for TRPC6 inhibitor project, confirmation (AID 2776). The following applies: HEK293 TRPC4/MOR, membrane potential dye fluorescence; at 10 µM; channel activated by saturating DAMGO dose.

SMILES strings stand for the structures. The list shows a part of the results, in another mix than the full data. Some results for these compounds are left out of this collection, so the calls shown say nothing about other tests. Activity calls are given as the source filed them.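 Rule for the calls: active = compounds whose fluorescence signal differed from control wells by over 3 SD, either direction, in both duplicate plates; inactive = the rest.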

With `O=C(OC1CN2CCC1CC2)C(CO)(c1ccccc1)c1ccccc1` (stereo unspecified), the call was inactive.
